By UniProt entry, the sequences of proteins in these tests, tags left out.
UniProt Q6DWJ6, whole entry, species assumed: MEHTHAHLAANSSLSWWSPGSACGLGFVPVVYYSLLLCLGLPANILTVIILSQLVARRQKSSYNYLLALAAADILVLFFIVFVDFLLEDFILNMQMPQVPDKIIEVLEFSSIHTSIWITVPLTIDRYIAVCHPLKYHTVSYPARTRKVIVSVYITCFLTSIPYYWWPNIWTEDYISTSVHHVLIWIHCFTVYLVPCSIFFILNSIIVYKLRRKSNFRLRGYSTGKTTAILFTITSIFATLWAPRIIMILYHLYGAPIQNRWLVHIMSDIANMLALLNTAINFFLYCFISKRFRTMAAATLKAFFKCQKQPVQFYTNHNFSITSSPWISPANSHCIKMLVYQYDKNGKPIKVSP

According to patent publication US20250163065A1, “PYRROLOTRIAZINONE COMPOUND, PHARMACEUTICAL COMPOSITION COMPRISING SAME, PREPARATION METHOD THEREFOR, AND USE THEREOF” (SHANGHAITECH UNIVERSITY, priority 2022, published 2025):

Target: GPR139 (Homo sapiens (Human), UniProt Q6DWJ6)
Experiment: Agonistic activity on GPR139, calcium flux detection assay (FLIPR) in transfected CHO-K1 cells
Assay type: cell-based

Structure (SMILES)	Emax [%]
C[C@H](NC(=O)Cn1ncc2cccn2c1=O)c1ccccc1 [Compound I-4, (S)-2-(4-oxopyrrolo[1,2-d][1,2,4]triazin-3(4H)yl)-N-(1-phenylethyl)acetamide]	99
Cc1ccc2cnn(CC(=O)N[C@@H](C)c3ccccc3)c(=O)n12 [Compound I-14, (S)-2-(6-methyl-4-oxopyrrolo[1,2-d][1,2,4]triazin-3(4H)yl)-N-(1-phenylethyl)acetamide]	111
Cc1ccc([C@H](C)NC(=O)Cn2ncc3c(C)cc(C)n3c2=O)cc1 [Compound I-18, (S)-2-(6,8-dimethyl-4-oxopyrrolo[1,2-d][1,2,4]triazin-3(4H)yl)-N-(1-(p-tolyl)ethyl)acetamide]	105
Cc1cc(C)n2c(=O)n(CC(=O)N[C@@H](C)c3ccc(Cl)cc3)ncc12 [Compound I-22, (S)—N-1-(4-chlorophenyl)ethyl-2-(6,8-dimethyl-4-oxopyrrolo[1,2-d][1,2,4]triazin-3(4H)yl)acetamide]	104
